Experimental data from PubChem BioAssay AID588591 (National Center for Advancing Translational Sciences (NCATS), 2011).
Only a part is listed here, and it is no random draw. Inconclusive results are not listed. Activity calls are given as the source filed them. Calls come from the whole dose curve; as a rule, active = well fitted inhibition curve with a large enough effect; inconclusive = small, poorly fitted or top-dose-only effect, or another doubt; inactive = no such curve, though single readings can be large or run the other way.

By UniProt entry, the sequences of proteins in these tests, tags left out.
UniProt Q9Y253, whole entry: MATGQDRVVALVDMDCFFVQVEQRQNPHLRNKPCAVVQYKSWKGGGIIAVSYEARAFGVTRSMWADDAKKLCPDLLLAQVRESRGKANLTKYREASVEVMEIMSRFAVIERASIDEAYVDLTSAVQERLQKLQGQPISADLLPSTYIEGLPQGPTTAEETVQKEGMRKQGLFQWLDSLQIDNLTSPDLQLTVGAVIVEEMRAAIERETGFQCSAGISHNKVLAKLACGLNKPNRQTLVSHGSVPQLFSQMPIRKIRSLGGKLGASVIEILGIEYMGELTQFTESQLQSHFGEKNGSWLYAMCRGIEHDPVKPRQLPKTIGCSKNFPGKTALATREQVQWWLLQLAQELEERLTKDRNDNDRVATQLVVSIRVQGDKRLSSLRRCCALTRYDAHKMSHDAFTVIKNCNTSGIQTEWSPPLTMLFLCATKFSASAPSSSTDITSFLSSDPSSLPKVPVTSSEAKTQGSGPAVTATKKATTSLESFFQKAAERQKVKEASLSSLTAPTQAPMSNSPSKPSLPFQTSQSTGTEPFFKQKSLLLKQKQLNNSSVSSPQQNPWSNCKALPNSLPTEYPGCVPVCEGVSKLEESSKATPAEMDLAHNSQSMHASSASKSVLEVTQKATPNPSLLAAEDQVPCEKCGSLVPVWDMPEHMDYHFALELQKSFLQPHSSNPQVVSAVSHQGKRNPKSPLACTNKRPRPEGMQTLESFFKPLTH

Target: DNA polymerase eta (Homo sapiens) (UniProt Q9Y253)
Experiment: qHTS for Inhibitors of Polymerase Eta
Details: recombinant Pol eta, fluorescent DNA replication assay; at 114 µM (top of the series) unless noted
% is set by controls: 0 for no effect and ±100 for the full control effect.

| SMILES | activity change, negative = inhibition |
| --- | --- |
| CN(C)C(=O)c1c([N+](=O)[O-])cc([N+](=O)[O-])cc1[N+](=O)[O-] | inactive: -12.1% |
| CP(=O)(Nc1ccc(Cl)cc1)Oc1ccc(F)cc1 (centres undefined) | inactive: -2.21% |
| CC(C)(C)c1ccc(OP(C)(=O)O)cc1 | inactive: -5.56% |
| COc1ccccc1OP(C)(=O)Nc1ccccc1Br (centres undefined) | inactive: -11.5% |
| CP(=O)(Oc1ccccc1)N1CCOC1=O (centres undefined) | inactive: -2.91% |
| CCc1ccc(OP(C)(=O)Nc2cccnc2)cc1 (centres undefined) | inactive: -17.3% |
| COc1ccccc1OP(C)(=O)Nc1c(C)n(C)n(-c2ccccc2)c1=O (centres undefined) | inactive: -13.9% |
| O=C(OCCCN1CCCC1)C(O)(c1ccccc1)C1CCCCC1 (centres undefined) | inactive: 7.12% |
| N#[O+].[C-]#N.[C-]#N.[C-]#N.[C-]#N.[C-]#N.[Fe+2].[Na+].[Na+] | inactive: -6.71% [at 57.1 µM] |
| CCN(CC)CC(O)COC(=O)C(O)(c1ccccc1)C1CCCCC1 (centres undefined) | inactive: 1.96% |
| COc1ccc(OP(C)(=O)Nc2ccc(Br)cc2)cc1 (centres undefined) | inactive: -22% |
| CP(=O)(OC12CC3CC(CC(C3)C1)C2)OC12CC3CC(CC(C3)C1)C2 | inactive: -22.3% |
| CCOC(=O)c1ccc(NP(C)(=O)Oc2ccc(Cl)cc2)cc1 (centres undefined) | inactive: -21.2% |
| Nc1ccc2c(ccc3cccnc32)n1.O=[N+]([O-])c1cc([N+](=O)[O-])c(O)c([N+](=O)[O-])c1 | inactive: 4.73% |
| CP(=O)(OCCOc1ccccc1)OCCOc1ccccc1 | inactive: -0.034% |
| CP(=O)(Nc1ccc(Cl)cc1Cl)Oc1ccccc1 (centres undefined) | inactive: -4.66% |
| COc1ccc(OP(C)(=O)Nc2ccccc2Br)cc1 (centres undefined) | inactive: -8.37% |
| COc1ccccc1OP(C)(=O)Nc1ccc(C)c(C)c1 (centres undefined) | inactive: 0.059% |
| Cc1cc(C)cc(OP(C)(=O)Nc2cccc(C(F)(F)F)c2)c1 (centres undefined) | inactive: -7.59% |
| CCc1ccc(OP(C)(=O)O)cc1 | inactive: -14.5% |
| CP(=O)(Nc1ccccn1)Oc1ccccc1 (centres undefined) | inactive: 4.43% |

| SMILES | activity change, negative = inhibition |
| --- | --- |
| COc1ccccc1OP(C)(=O)Nc1ccc(C)cc1C (centres undefined) | inactive: -2.88% |
| O=[N+]([O-])c1cc([N+](=O)[O-])c(Nc2ccccn2)c([N+](=O)[O-])c1 | inactive: -11.2% |
| Cc1c(NP(C)(=O)Oc2ccc(C(C)C)cc2)c(=O)n(-c2ccccc2)n1C (centres undefined) | inactive: -6.63% |
| CN(C)CCOC(=O)C(O)(c1ccccc1)C1CCCC1 (centres undefined) | inactive: -10.9% |
| COc1ccc(OP(C)(=O)Nc2ccccn2)cc1 (centres undefined) | inactive: -4.22% |
| COc1ccccc1OP(C)(=O)Nc1ccc(Br)cc1 (centres undefined) | inactive: -13.5% |
| O=C(OCCN1CCN(CCOCc2ccccc2)CC1)C(O)(c1ccccc1)c1ccccc1 | inactive: -3.75% |
| CC(C)c1ccc(OP(C)(=O)Nc2ccc(SC(F)(F)F)cc2)cc1 (centres undefined) | inactive: -18.1% |
| CP(=O)(Nc1ccccc1F)Oc1ccccc1 (centres undefined) | inactive: -0.488% |
| CP(=O)(Nc1ccccc1)Oc1ccc(F)cc1 (centres undefined) | inactive: -4.47% |
| CCN(CC)CCCOC(=O)C(O)(c1ccccc1)C1CCCCC1 (centres undefined) | inactive: -7.63% |
| Cc1c([N+](=O)[O-])cc([N+](=O)[O-])c(Br)c1[N+](=O)[O-] | inactive: -13.3% |
| COc1ccc(OP(C)(=O)Nc2ccc(SC(F)(F)F)cc2)cc1 (centres undefined) | inactive: -29.4% |
| CCOC(=O)c1ccc(NP(C)(=O)Oc2ccc(F)cc2)cc1 (centres undefined) | inactive: -19.2% |
| Cc1c(C(c2ccc3c(c2)OCO3)c2c(C)n(C)n(-c3ccccc3)c2=O)c(=O)n(-c2ccccc2)n1C.O=[N+]([O-])c1cc([N+](=O)[O-])c(O)c([N+](=O)[O-])c1 | inactive: -11.7% |
| Cc1cc(-c2cccc3ccccc23)c(C)cn1.O=[N+]([O-])c1cc([N+](=O)[O-])c(O)c([N+](=O)[O-])c1 | inactive: -9.67% |
| O=[N+]([O-])c1ccc(OP2(=O)COCCO2)cc1 (centres undefined) | inactive: 5.95% |
| COc1ccc(NP(C)(=O)Oc2ccccc2OC)cc1 (centres undefined) | inactive: -2.83% |
| CN(C)CCOC(=O)C(O)(c1ccccc1)C1CCCCC1 (centres undefined) | inactive: -16.7% |
| COc1ccc(OP(C)(=O)Nc2cccc(Br)c2)cc1 (centres undefined) | inactive: 4.71% |
| Cc1ccccc1NP(C)(=O)Nc1ccccc1C | inactive: -18.1% |

| SMILES | activity change, negative = inhibition |
| --- | --- |
| CP(=O)(Nc1ccc2c(c1)OCCO2)Oc1ccccc1 (centres undefined) | inactive: -7.04% |
| CCOP(C)(=S)SCC(=O)NC(C)(CC)C(=O)O (centres undefined) | inactive: -7.41% |
| CP(=O)(Nc1ccc(SC(F)(F)F)cc1)Oc1ccc(F)cc1 (centres undefined) | inactive: -17.3% |
| Cc1nc2ccc3ccccc3c2s1.O=[N+]([O-])c1cc([N+](=O)[O-])c(O)c([N+](=O)[O-])c1 | inactive: -8.31% |
| O=[N+]([O-])c1cc([N+](=O)[O-])c(-c2cnn(-c3ccccc3)c2)c([N+](=O)[O-])c1 | inactive: -11.1% |
| O=[N+]([O-])c1cc([N+](=O)[O-])c(-n2nnc3ccccc32)c([N+](=O)[O-])c1 | inactive: 2.97% |
| CP(=O)(Nc1ccc(SC(F)(F)F)cc1)Oc1ccccc1 (centres undefined) | inactive: -8.89% |
| CCCOc1ccc(NP(C)(=O)Oc2ccc(Cl)cc2)cc1 (centres undefined) | inactive: -18.7% |
| CN1CCCCC1COC(=O)C1(O)c2ccccc2CCc2ccccc21 (centres undefined) | inactive: -13.3% |
| COc1ccccc1OP(C)(=O)Nc1c(C)cccc1C (centres undefined) | inactive: -2.64% |
| O=[N+]([O-])c1cc([N+](=O)[O-])c(Nc2nnnn2CCO)c([N+](=O)[O-])c1 | inactive: -6.2% |
| CC1=C2N=C(C=C3N=C(C(C)=C4[N-][C@@](C)([C@@H]5N=C1[C@](C)(CCC(=O)NC[C@@H](C)OP(=O)([O-])O[C@H]1[C@@H](O)[C@@H](n6cnc7cc(C)c(C)cc76)O[C@@H]1CO)[C@H]5CC(N)=O)[C@@](C)(CC(N)=O)[C@@H]4CCC(N)=O)[C@@](C)(CC(N)=O)[C@@H]3CCC(N)=O)C(C)(C)[C@@H]2CCC(N)=O.[C-]#N.[Co+3] | inactive: -4.76% |
| CC1=NCCc2c1[nH]c1ccccc21.O=[N+]([O-])c1cc([N+](=O)[O-])c(O)c([N+](=O)[O-])c1 | inactive: -8.26% |
| CP(=O)(Nc1cccc(Br)c1)Oc1ccccc1 (centres undefined) | inactive: -15% |
| Cc1cc(C)cc(OP(C)(=O)Nc2ccccn2)c1 (centres undefined) | inactive: -6.92% |
| Cc1ccc(C)c(NP(C)(=O)Oc2ccccc2)c1 (centres undefined) | inactive: 5.52% |
| Cc1cc(C)cc(OP(C)(=O)Nc2ccc(C)cc2C)c1 (centres undefined) | inactive: -7.74% |
| CCOC(=O)c1ccc(NP(C)(=O)Oc2cc(C)cc(C)c2)cc1 (centres undefined) | inactive: -5.3% |
| COc1ccccc1OP(C)(=O)Nc1cccc(Br)c1 (centres undefined) | inactive: -7.75% |
| CCN(CC)CCCOC(=O)C(O)(c1ccccc1)c1ccccc1 | inactive: -4.2% |
| COc1ccccc1OP(C)(=O)Nc1cc(Cl)ccc1C (centres undefined) | inactive: -13.9% |

| SMILES | activity change, negative = inhibition |
| --- | --- |
| COc1ccc(OP(C)(=O)Nc2cccc(F)c2)cc1 (centres undefined) | inactive: -22% |
| Cc1cc(C)cc(OP(C)(N)=O)c1 (centres undefined) | inactive: -16.6% |
| CCOC(=O)c1ccc(NP(C)(=O)Oc2ccccc2)cc1 (centres undefined) | inactive: -12.7% |
| COc1ccccc1OP(C)(=O)Nc1ccc(C)cc1 (centres undefined) | inactive: -6.77% |
| Cc1ccc(NP(C)(=O)Oc2ccccc2)c(C)c1 (centres undefined) | inactive: -4.02% |
| Cc1cccc(C)c1OP(C)(N)=O (centres undefined) | inactive: 3.22% |
| O=[N+]([O-])c1ccc2c(c1)C=Nc1ccccc1O2 | inactive: -1.03% |
| O=[N+]([O-])c1cc([N+](=O)[O-])c(Nc2cccnc2)c([N+](=O)[O-])c1 | inactive: -22.5% |
| COc1ccccc1OP(C)(=O)Nc1ccccc1 (centres undefined) | inactive: -19.2% |
| CP(=O)(Nc1ccccc1Br)Oc1ccccc1 (centres undefined) | inactive: -17.9% |
| CP(=S)(Nn1cnnc1)Oc1ccccc1 (centres undefined) | inactive: -8.28% |
| CP(=O)(Nc1ccccn1)Oc1ccc(Cl)cc1 (centres undefined) | inactive: 1.12% |
| CCOP(C)(=S)SCC(=O)NC(C)C(=O)O (centres undefined) | inactive: -22.3% |
| O=[N+]([O-])c1cc([N+](=O)[O-])c(O)c([N+](=O)[O-])c1.c1ccc(Oc2ccncc2)cc1 | inactive: -3.49% |
| CCOC(=O)c1ccc(NP(C)(=O)Oc2ccc(OC)cc2)cc1 (centres undefined) | inactive: -15.4% |
| CCc1ccc(OP(C)(=O)N2CCN(c3ccc([N+](=O)[O-])cc3)CC2)cc1 (centres undefined) | inactive: -8.1% |
| CP(=O)(NC(=O)Nc1ccccc1)Oc1ccccc1 (centres undefined) | inactive: 0.601% |
| Cc1cc(C)cc(OP(C)(=O)Nc2ccc(SC(F)(F)F)cc2)c1 (centres undefined) | inactive: -12.3% |
| CP(=O)(Nc1ccc(SC(F)(F)F)cc1)Oc1ccc(Cl)cc1 (centres undefined) | inactive: -12.1% |
| Cc1cccc(C)c1OP(C)(=O)Nc1ccc(SC(F)(F)F)cc1 (centres undefined) | inactive: -22.2% |
| CP(=O)(Oc1ccccc1)OC(c1ccccc1)C(F)(F)F (centres undefined) | inactive: -5.92% |
